This is an account of results in patent publication US9446039B2, “Aminoheteroaryl compounds as MTH1 inhibitors” (CEMM—FORSCHUNGSZENTRUM FÜR MOLEKULARE MEDIZIN GMBH, priority 2012, dated 2016).

One experiment has as its system MDA-MB-231. The settings on record: 10 μM, versus DMSO-treated cells; KRAS G13D.
The test system of the next experiment is MCF-7. The settings on record: 10 μM, versus DMSO-treated cells.

For the molecule `C[C@@H](Oc1cc(-c2cnn(C3CCNCC3)c2)cnc1N)c1c(Cl)ccc(F)c1Cl`, the “growth of MDA-MB-231 in colony formation assay” value in the experiment on MDA-MB-231 was “significantly decreased the growth”. Further, in the experiment on MCF-7, the “growth of MCF-7 in colony formation assay” value is on record as “significantly decreased the growth”.
